Reference: PubChem BioAssay AID720707 (National Center for Advancing Translational Sciences (NCATS), 2013)
This is a selection; strong and weak results do not stand in their true shares. Calls of active or inactive are those of the source. Calls come from the whole dose curve; as a rule, active = well fitted activation curve with a large enough effect; inconclusive = small, poorly fitted or top-dose-only effect; inactive = no such curve, though single readings can be large or run the other way.

Chains of the proteins cited; added tags and fusions are not shown. Lines headed by an entry give the natural chain unless they say otherwise; changes in a name come on top.
UniProt O95398: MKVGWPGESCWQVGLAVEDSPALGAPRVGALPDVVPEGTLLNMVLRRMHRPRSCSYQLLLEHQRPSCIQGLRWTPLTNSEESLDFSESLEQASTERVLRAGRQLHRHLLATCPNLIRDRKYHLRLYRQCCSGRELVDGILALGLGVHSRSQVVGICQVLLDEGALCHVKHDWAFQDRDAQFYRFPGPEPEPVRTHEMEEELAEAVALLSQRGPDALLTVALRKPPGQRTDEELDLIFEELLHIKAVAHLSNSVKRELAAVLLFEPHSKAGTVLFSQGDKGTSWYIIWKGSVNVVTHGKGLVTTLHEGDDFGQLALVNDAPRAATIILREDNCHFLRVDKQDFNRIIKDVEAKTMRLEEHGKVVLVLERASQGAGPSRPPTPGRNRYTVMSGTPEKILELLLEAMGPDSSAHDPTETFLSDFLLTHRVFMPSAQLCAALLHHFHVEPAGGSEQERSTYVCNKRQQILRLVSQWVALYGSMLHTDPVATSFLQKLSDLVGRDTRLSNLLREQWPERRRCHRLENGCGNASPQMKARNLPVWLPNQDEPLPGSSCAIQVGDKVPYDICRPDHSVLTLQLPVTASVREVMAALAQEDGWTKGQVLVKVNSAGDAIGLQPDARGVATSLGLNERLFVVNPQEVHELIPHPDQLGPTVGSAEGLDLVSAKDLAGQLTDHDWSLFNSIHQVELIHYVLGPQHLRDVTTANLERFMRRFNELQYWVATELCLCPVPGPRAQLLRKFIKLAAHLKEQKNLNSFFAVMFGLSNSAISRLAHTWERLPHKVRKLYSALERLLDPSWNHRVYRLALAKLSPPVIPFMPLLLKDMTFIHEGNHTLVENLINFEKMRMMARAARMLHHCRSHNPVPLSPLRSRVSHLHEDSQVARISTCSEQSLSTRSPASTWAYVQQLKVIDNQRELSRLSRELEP

Target: Rap guanine nucleotide exchange factor 3 (Homo sapiens) (UniProt O95398)
Test: qHTS for Agonist of cAMP-regulated guanine nucleotide exchange factor 3 (EPAC1): primary screen; note: nearly all actives have a fitted effect of over 60% in size
Details: biochemical assay, 100% = response to 6.5 mM cAMP; at 154 µM (top of the series)
From the text: In multi-cellular eukaryotic organisms, the effects of cAMP are transduced by two ubiquitously-expressed intracellular cAMP receptors, the classic protein kinase A/cAMP-dependent protein kinase (PKA/cAPK) and the more recently discovered exchange protein directly activated by cAMP/cAMP-regulated guanine nucleotide exchange factor (EPAC/cAMP-GEF). Both PKA and EPAC are ubiquitously expressed in all tissues, and an increase in intracellular cAMP levels will lead to the activation of both PKA and EPAC. Therefore, careful dissections of the individual role and relative contribution of EPAC and PKA within the overall cAMP signaling in various model systems are critical for further elucidating the mechanism of cAMP signaling. To date no EPAC-specific antagonists and agonist, as well as isoform-specific agonists have been reported, and developing EPAC-specific pharmacological probes to determine the physiological functions that EPAC play in the overall cAMP-mediated signaling remains a major challenge within the research field. Furthermore, identified regulators of EPAC may lead to new mechanism-based therapeutic strategies specifically targeting the EPAC / cAMP-signaling components as EPAC has been implicated to play important roles in major human pathological conditions such as diabetes, heart disease, and cancer.
This qHTS will be used to screen the Molecular Libraries Small Molecule Repository (MLSMR) as a concentration-titration series using the NCGC unique quantitative screening (qHTS) platform to find activators for EPAC1. In addition, this assay will also be used as a counterscreen for the EPAC2 qHTS. This fluorescent based assay is developed and validated for EPAC1 that measures exchange using EPAC effector Rap1 complex with BODIPY-GDP, a GDP analog with a tethered fluorophores. Activators are identified by monitoring the change in fluorescence signal as the exchanged free BODIPY-GDP has a reduced fluorescence compared to Rap1-bound BODIPY-GDP. Increase in signal (activation) is the desired outcome for the EPAC1 agonist while no activity in this assay is desired for the EPAC2 agonist counterscreen.
[1] de Rooij, J., Zwartkruis, F. J., Verheijen, M. H., Cool, R. H., Nijman, S. M., Wittinghofer, A., and Bos, J.L. (1998) Nature 396, 474-477
NIH Chemical Genomics Center [NCGC]
NIH Molecular Libraries Probe Centers Network [MLPCN]
Assay Submitter (PI): Xiaodong Cheng, The University of Texas Medical Branch
Briefly, three uL of reagents (100 nM EPAC1, 250 nM RAP1B-BODIPY-GDP, 50 uM GDP) were dispensed into a 1536-well Greiner black solid-bottom medium binding assay plate. Controls and test compounds (23 nL) were transferred to the plate via a Kalypsys pin tool equipped with a 1536-pin array. The plates were centrifuged at 1,000 rpm for 15 seconds followed by 5 minute incubation at room temperature. The assay plates were read at 5 minute intervals for 30 minutes in the ViewLux plate reader using 480nm excitation and 540nm emission filters. The results were normalized to the agonist positive control of 6.5 mM cAMP.

Structure (SMILES)	activation
COc1ccccc1OP(=O)(Nc1ccc(C)cn1)Oc1ccccc1OC	inactive: 5.89%
Cc1ccc(OP(=O)(Nc2nccs2)Oc2ccc(C)cc2)cc1	inactive: -1.46%
Clc1ccc(Cl)c(NC2=NCC(CBr)S2)c1 (stereo unspecified)	inactive: -4.49%
CN1CCCC(OC(=O)C(c2ccccc2)c2ccccc2)C1 (stereo unspecified)	inactive: 1.86%
NC(=O)c1cc([N+](=O)[O-])cc([N+](=O)[O-])c1N	inactive: 0.237%
CN(C(=O)Cc1ccc(Cl)c(Cl)c1)[C@H]1CCCC[C@H]1N1CCCC1	inactive: 2.01%
Cc1ccc(N/C(=N/P(=O)(N2CCOCC2)N2CCOCC2)N2CCOCC2)cc1	inactive: -0.426%
O=[N+]([O-])C1C(O)C(O)C([N+](=O)[O-])C(O)C1O (stereo unspecified)	inactive: -13.5%
CC(C)CC(=O)NC(Sc1ccc(Cl)cc1)C(Cl)(Cl)Cl (stereo unspecified)	inactive: 21.6%
Nc1cc(N)c2nonc2c1[N+](=O)[O-]	inactive: 3.41%
Oc1ccccc1CNc1ccccn1	inactive: 6.96%
O=C(NC(Sc1ccncn1)C(Cl)(Cl)Cl)c1ccccc1 (stereo unspecified)	inactive: -4.84%
CCOP(=O)(Nc1ccccc1)OCC	inactive: -9.95%
Cc1cc(SC(NC(=O)c2ccc(F)cc2)C(Cl)(Cl)Cl)ncn1 (stereo unspecified)	inactive: -2.02%
CN(C(=O)Cc1ccc(Cl)c(Cl)c1)[C@H]1CCCC[C@@H]1N1CCCC1	inactive: 6.68%
Cc1ccc(NP(=O)(Oc2ccccc2F)Oc2ccccc2F)nc1	inactive: 9.44%
O=C(O)c1ccccc1[As](=O)(O)O	inactive: 5.35%
CC(=O)Nc1ccc([As](=O)(O)O)cc1	inactive: -2.05%
CCCC1OP(N)(=O)OCC1CC (stereo unspecified)	inactive: -0.556%
CN(C)P(=O)(N(C)C)n1c(Nc2ccccc2)nnc1-c1ccccc1	inactive: 6.47%
O=P(Nc1nc2ccc(Cl)cc2s1)(c1ccccc1)c1ccccc1	inactive: 9.73%
CCN(N=Nc1nonc1N)c1nonc1N	inactive: 5.01%

Structure (SMILES)	activation
Nc1cccc2ccc([As](=O)(O)O)cc12	inactive: -9.95%
O=C(Nc1cc([As](=O)(O)O)ccc1O)c1ccccc1	inactive: -1.46%
O=P1(N(CCCl)CCCl)OCCCS1 (stereo unspecified)	inactive: 9.55%
O=[N+]([O-])c1cccc(NC2=NCC(CBr)S2)c1 (stereo unspecified)	inactive: 3.32%
COC(=O)C1(C)COP(=O)(Nc2ccccc2)OC1 (stereo unspecified)	inactive: -4.24%
O=C(O)CNc1ccc([As](=O)(O)O)cc1	inactive: -2.46%
CC(C)(C)C(=O)NC(Sc1ccncn1)C(Cl)(Cl)Cl (stereo unspecified)	inactive: -17.1%
O=[N+]([O-])c1ncn(CCn2ncnc2[N+](=O)[O-])n1	inactive: 4.65%
CC(=O)N1C2C3N(C(C)=O)C1C1N(C(C)=O)C(C(N1C(C)=O)N3C(C)=O)N2C(C)=O	inactive: 13%
O=[N+]([O-])c1cccc2n[nH]nc12	inactive: -2.21%
Cc1ccc(NP(=O)(Oc2ccccc2)Oc2ccccc2)nc1	inactive: 3.86%
O=[N+]([O-])c1cc([N+](=O)[O-])c(CCNc2ccccc2)c([N+](=O)[O-])c1	inactive: -10.2%
CCc1nc2c(n1)c1c(non1O)c1c2no[n+]1[O-]	inactive: -13.2%
COc1ccc(C2=NCC(CBr)S2)cc1 (stereo unspecified)	inactive: 8.83%
CC(C)=N/N=C(\N)N[N+](=O)[O-]	inactive: 11.2%
CC(C)c1nc(Nc2ccccc2)n(P(=O)(N(C)C)N(C)C)n1	inactive: -11.3%
CN(C)C(=O)OCCc1n(C)cc[n+]1C	inactive: 0.942%
c1cc(-c2nn[nH]n2)ccc1-c1nn[nH]n1	inactive: -9.04%
CC1CCN(C(=O)Oc2c(Cl)cc(Cl)c3cccnc23)CC1	inactive: 1.38%
Nc1ccc([As](=O)(O)c2ccc(N)cc2)cc1	inactive: -2.13%
C[N+]1=C2C=CC=CC=C2SC12C([N+](=O)[O-])=CC([N+](=O)[O-])=C[C-]2[N+](=O)[O-] (stereo unspecified)	inactive: 8.28%
CCN(/C(=N/P(=O)(N1CCOCC1)N1CCOCC1)N1CCOCC1)c1ccc(OC)cc1	inactive: 0.114%

Structure (SMILES)	activation
c1nnnn1CCn1cnnn1	inactive: 3.89%
O=P(Nc1nccs1)(c1ccccc1)c1ccccc1	inactive: -6%
CC(C)C(=O)NC(Sc1ccccc1)C(Cl)(Cl)Cl (stereo unspecified)	inactive: -4.01%
O=P(Nc1nc2ccccc2s1)(c1ccccc1)c1ccccc1	inactive: 7.61%
C[C@H]1OP(=O)(Oc2ccccc2)[C@H](O)[C@H](O)[C@H]1N=[N+]=[N-] (stereo partly specified)	inactive: -11.7%
Nc1ccc(CCCCOc2ccccc2)cc1	inactive: -15.7%
COc1ccc(N)c([N+](=O)[O-])c1[N+](=O)[O-]	inactive: 4.99%
CN(C)C1(CNC(=O)c2ccc(Cl)c(S(N)(=O)=O)c2)CCCCC1	inactive: -0.323%
O=P(Nc1ccccn1)(c1ccc(Br)cc1)c1ccc(Br)cc1	inactive: -6.17%
Nc1ccc([As](=O)(O)c2ccc([N+](=O)[O-])cc2)cc1	inactive: 8.95%
C(Cc1nn[nH]n1)Cc1nn[nH]n1	inactive: 14.4%
O=C(OC1CN2CCC1CC2)c1cccc(Cl)c1 (stereo unspecified)	inactive: -1.16%
CC(=O)NC(SC(=S)N(C)C)C(Cl)(Cl)Cl (stereo unspecified)	inactive: 0.624%
O=[N+]([O-])c1ncn(CCn2cnc([N+](=O)[O-])n2)n1	inactive: -2.37%
O=[N+]([O-])c1ccc(O)c(/C=N/Nc2ccc([N+](=O)[O-])cc2[N+](=O)[O-])c1	inactive: 6.76%
O=[As](O)(c1ccccc1)c1ccc(O)cc1	inactive: 4.14%
O=P1(N(CCCl)CCCl)OCCC2CCCCN21 (stereo unspecified)	inactive: -8.35%
O=C(NC1CCS(=O)(=O)C1)NP(=S)(Oc1ccccc1)Oc1ccccc1 (stereo unspecified)	inactive: -8.4%
CCNC(=S)/N=C(\N)N[N+](=O)[O-]	inactive: 2.32%
c1ccc(-c2nn[nH]n2)c(-c2nn[nH]n2)c1	inactive: -4.64%
Cc1ccc(NP(=O)(Oc2cccc(C)c2)Oc2cccc(C)c2)nc1	inactive: -2.12%
Cc1ccccc1OP(=O)(Nc1ccccn1)Oc1ccccc1C	inactive: 0.983%
